Test results taken from PubChem BioAssay (Tox21).
Where “and” joins values, the source holds several entries; their conditions need not be identical. Equal values may be shown once. The list shows a part of the results, in another mix than the full data. Inconclusive results are not listed. Some compounds were tested as several samples or in several runs, with calls that do not always agree. Calls of active or inactive are those of the source. Unless noted, calls come from the whole dose curve; as a rule, active = well fitted curve in the direction sought with a large enough effect in the repeat runs; inconclusive = weak or mixed curves; inactive = no such curve, though single readings can be large; an effect the other way counts as inactive or inconclusive.

Chains of the proteins cited; added tags and fusions are not shown.
UniProt P22303, whole entry: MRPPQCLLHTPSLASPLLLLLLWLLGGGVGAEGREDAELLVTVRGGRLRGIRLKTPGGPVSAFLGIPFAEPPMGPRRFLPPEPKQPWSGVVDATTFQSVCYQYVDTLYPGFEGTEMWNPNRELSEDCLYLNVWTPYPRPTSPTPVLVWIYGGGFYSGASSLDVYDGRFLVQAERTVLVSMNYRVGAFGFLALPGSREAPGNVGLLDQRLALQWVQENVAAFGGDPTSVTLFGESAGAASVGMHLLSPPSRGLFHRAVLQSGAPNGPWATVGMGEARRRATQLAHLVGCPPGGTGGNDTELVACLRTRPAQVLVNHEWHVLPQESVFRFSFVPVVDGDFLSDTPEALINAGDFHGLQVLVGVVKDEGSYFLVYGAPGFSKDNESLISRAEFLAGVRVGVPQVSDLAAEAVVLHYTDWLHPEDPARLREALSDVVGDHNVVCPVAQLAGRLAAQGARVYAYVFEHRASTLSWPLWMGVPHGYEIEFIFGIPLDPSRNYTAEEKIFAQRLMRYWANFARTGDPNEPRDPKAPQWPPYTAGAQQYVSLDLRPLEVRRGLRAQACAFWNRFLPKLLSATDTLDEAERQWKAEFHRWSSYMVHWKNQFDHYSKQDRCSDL
UniProt O75469, whole entry: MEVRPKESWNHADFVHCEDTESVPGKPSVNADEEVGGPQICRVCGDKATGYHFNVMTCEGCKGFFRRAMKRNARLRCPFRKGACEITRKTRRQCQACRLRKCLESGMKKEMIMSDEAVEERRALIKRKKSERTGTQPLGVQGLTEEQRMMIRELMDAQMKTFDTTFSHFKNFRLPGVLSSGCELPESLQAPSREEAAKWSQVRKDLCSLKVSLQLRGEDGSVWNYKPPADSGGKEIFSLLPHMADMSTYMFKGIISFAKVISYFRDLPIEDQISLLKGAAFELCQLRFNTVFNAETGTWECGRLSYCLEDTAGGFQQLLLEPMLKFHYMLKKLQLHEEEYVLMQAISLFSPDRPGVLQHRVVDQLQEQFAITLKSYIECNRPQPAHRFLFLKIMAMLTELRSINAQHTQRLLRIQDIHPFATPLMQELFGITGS
UniProt Q12809, whole entry: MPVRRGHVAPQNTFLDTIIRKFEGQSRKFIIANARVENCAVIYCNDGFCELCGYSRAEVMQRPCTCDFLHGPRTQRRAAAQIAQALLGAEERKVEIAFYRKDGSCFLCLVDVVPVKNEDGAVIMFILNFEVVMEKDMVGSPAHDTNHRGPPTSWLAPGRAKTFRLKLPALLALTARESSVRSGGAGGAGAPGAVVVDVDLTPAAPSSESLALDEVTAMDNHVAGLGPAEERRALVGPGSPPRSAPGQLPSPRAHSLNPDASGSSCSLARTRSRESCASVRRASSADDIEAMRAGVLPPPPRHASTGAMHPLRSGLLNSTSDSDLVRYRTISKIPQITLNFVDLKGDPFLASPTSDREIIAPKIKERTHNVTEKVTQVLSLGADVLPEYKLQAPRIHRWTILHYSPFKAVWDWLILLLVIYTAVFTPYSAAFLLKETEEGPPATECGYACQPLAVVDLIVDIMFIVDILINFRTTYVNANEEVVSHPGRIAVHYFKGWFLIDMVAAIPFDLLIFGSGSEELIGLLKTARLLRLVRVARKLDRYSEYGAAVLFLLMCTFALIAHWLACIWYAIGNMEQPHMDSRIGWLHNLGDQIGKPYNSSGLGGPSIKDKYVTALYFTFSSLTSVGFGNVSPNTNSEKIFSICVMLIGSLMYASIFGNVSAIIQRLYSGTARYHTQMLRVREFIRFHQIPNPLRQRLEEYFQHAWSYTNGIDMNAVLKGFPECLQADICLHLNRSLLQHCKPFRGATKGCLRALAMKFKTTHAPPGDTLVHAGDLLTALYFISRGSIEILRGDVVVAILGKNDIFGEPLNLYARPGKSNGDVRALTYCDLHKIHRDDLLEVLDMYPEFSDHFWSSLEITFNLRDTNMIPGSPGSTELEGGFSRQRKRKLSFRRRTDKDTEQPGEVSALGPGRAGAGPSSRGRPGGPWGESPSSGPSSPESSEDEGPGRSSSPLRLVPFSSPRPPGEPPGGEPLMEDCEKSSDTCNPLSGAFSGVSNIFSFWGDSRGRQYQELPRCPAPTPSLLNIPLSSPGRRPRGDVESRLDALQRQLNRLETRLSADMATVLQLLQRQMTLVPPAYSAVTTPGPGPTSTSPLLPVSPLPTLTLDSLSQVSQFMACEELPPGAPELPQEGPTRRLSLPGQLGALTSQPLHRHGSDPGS
UniProt P10635, whole entry: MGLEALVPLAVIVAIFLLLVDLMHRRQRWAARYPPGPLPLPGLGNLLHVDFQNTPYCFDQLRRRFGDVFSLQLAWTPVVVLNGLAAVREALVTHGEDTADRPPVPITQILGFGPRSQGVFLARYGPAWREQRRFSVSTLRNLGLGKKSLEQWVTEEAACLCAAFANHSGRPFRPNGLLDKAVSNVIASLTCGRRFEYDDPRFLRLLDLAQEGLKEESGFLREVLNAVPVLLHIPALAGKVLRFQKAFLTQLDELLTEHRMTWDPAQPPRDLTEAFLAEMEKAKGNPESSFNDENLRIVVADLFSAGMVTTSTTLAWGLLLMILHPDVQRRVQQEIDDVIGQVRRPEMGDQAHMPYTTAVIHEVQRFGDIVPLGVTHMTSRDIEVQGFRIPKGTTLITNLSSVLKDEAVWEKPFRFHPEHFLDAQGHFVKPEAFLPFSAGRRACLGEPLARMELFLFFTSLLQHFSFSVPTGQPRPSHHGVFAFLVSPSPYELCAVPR
UniProt P33261, whole entry: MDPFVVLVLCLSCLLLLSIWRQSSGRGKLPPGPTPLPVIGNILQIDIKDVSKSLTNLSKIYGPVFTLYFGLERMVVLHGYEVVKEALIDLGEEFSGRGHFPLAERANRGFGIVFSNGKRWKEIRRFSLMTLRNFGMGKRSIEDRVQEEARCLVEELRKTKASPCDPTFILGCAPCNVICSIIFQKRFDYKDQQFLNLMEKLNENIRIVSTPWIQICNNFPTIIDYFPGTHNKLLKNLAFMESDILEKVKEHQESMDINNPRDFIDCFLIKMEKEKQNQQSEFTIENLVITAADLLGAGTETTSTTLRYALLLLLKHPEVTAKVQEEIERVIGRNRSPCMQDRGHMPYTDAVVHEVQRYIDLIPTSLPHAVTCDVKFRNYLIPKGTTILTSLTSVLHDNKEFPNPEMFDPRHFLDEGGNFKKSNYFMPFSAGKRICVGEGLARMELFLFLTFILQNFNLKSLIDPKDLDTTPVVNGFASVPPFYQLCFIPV
UniProt P11712, whole entry: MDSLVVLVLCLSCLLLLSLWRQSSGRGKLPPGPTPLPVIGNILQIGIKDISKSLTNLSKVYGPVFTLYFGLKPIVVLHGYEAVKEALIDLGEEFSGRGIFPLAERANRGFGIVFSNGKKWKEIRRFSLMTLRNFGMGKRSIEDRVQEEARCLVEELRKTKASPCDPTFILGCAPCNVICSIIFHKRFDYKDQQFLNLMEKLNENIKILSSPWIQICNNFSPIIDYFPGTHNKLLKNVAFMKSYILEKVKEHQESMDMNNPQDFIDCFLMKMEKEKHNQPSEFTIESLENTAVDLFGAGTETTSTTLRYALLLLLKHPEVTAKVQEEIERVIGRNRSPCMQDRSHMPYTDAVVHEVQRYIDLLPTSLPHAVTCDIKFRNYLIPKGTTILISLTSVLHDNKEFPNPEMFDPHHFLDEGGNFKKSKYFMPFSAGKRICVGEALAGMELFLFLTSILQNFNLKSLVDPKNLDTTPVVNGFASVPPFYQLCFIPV
UniProt P05177, whole entry: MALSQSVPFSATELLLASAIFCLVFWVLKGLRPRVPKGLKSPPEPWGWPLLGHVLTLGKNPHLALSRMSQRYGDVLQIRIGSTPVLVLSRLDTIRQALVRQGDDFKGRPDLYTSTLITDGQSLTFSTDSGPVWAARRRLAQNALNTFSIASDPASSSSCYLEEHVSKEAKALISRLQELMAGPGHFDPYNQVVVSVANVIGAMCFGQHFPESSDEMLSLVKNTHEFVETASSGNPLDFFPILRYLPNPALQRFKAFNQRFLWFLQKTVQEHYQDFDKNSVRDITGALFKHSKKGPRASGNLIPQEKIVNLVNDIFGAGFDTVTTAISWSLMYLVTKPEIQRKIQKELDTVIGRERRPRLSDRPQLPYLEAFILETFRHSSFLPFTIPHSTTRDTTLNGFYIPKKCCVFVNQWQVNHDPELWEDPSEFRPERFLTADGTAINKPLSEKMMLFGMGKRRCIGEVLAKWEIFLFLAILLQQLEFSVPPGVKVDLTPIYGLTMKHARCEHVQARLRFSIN
UniProt P08684, whole entry: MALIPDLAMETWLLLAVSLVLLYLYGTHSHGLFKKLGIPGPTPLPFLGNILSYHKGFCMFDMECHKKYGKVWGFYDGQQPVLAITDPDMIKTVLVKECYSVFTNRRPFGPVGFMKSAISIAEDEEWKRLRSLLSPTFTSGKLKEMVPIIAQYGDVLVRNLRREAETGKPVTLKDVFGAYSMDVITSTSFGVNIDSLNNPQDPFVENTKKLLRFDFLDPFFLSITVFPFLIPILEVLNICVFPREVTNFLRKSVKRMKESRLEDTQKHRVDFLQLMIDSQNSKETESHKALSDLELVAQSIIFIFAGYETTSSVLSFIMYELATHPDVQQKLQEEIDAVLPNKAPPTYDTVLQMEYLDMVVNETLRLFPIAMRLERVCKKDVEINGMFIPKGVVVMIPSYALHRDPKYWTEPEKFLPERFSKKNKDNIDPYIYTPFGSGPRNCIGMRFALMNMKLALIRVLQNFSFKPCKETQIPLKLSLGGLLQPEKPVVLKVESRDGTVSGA

Columns and labels:
[1] = biological target: Acetylcholinesterase (Homo sapiens) (UniProt P22303); assay: Acetylcholinesterase (AChE) small molecule antagonists: fluorescence cell-based qHTS assay (AID 1347398; calls by dose curve; note: nearly all actives have a fitted effect of over 50% in size; note: potency is the fitted concentration of half-maximal effect); conditions: SH-SY5Y cells; Potency: AChE activity; series mostly up to 115 µM
In short: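 Thiocholine generated from acetylthiocholine by SH-SY5Y cell AChE is detected with Thiolite Green (Ex/Em 490/520 nm) after 40 min at room temperature, following 30 min compound pretreatment at 37 C.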

[2] = Caspase-3/7 induction in HepG2 cells by small molecules, qHTS assay (AID 1346978); conditions: HepG2 caspase-3/7 activation, Caspase-Glo luminescence, 17 h; at 92.4 µM (top of the series) unless noted; note: nearly all actives have a fitted effect of over 15% in size
In short: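 Wild-type HepG2 cells (2,000/well) were settled 5 h at 37 C, 5% CO2, then exposed to compounds in DMSO for 17 h. Caspase-3/7 activity was read by luminescence 30 min after adding Caspase-Glo 3/7 reagent at room temperature.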

[3] = Caspase-3/7 induction in CHO-K1 cells by small molecules, qHTS assay (AID 1346980); conditions: CHO-K1 caspase-3/7 induction, Caspase-Glo luminescence, 17 h; at 92.4 µM (top of the series) unless noted; note: nearly all actives have a fitted effect of over 15% in size
In short: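 Wild-type cells were seeded at 1,500 per well and settled 5 hr at 37 C, 5% CO2, then exposed to DMSO-dissolved compounds for 17 hr. Caspase-Glo 3/7 reagent was added, and luminescence was read after 30min at room temperature.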

[4] = Caspase-3/7 induction in HepG2 cells by small molecules, qHTS cell viability counter screen (AID 1346981); conditions: CellTiter-Fluor fluorescence, 17 h; at 92.4 µM (top of the series) unless noted; note: nearly all actives have a fitted effect of over 30% in size
In short: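 Wild-type HepG2 cells (2,000/well) were allowed to settle for 5 hr at 37 C, 5% CO2, then dosed with compounds in DMSO by pin transfer. After 16 hr at 37 C, CellTiter-Fluor was added and fluorescence read 1 hr later.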

[5] = biological target: Nuclear receptor subfamily 1 group I member 2 (Homo sapiens) (UniProt O75469); assay: Human pregnane X receptor (PXR) small molecule agonists, qHTS assay (AID 1346982); conditions: PXR-Luc HepG2, CYP3A4 luciferase reporter, 24 h; at 92.4 µM (top of the series) unless noted; note: nearly all actives have a fitted effect of over 35% in size
In short: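 PXR-Luc HepG2 cells (CYP3A4 promoter-driven luciferase) were seeded in medium with 5% charcoal-stripped FBS, left 5 hr at 37 C, then exposed to compounds in DMSO for 24 hr. Luminescence was read after ONE-Glo addition.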

[6] = biological target: Voltage-gated inwardly rectifying potassium channel KCNH2 (Homo sapiens) (UniProt Q12809); assay: Human Ether-a-go-go-Related Gene (hERG) channel small molecule antagonists: fluorescence cell-based qHTS assay (AID 1671200); conditions: hERG-U2OS cells, FluxOR thallium flux fluorescence; at 76.8 µM (top of the series) unless noted;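 note: hERG-expressing U2OS cells given a thallium stimulus after FluxOR II dye loading; nearly all actives have a fitted effect of over 50% in size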
In short: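 In this thallium-flux screen, overnight-cultured U2OS cells bearing the channel are dye-loaded in darkness for an hour, rested 10 min at room temperature, and then monitored kinetically at 480/540 nm for two minutes post-stimulus.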

[7] = Human pregnane X receptor (PXR) small molecule agonists, qHTS cell viability counter screen (AID 1346977); conditions: PXR-Luc HepG2 viability, CellTiter-Fluor, 24 h; at 92.4 µM (top of the series) unless noted; note: nearly all actives have a fitted effect of over 50% in size
In short: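 In each well, the PXR reporter HepG2 line was checked for viability: CellTiter-Fluor reagent added 23hr post-dosing, fluorescence read after 1hr incubation at 37C.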

[8] = Caspase-3/7 induction in CHO-K1 cells by small molecules, qHTS cell viability counter screen (AID 1346979); conditions: CellTiter-Fluor fluorescence, 17 h; at 92.4 µM (top of the series) unless noted; note: nearly all actives have a fitted effect of over 35% in size
In short: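 Following a 5hr settling period, CHO-K1 cells at 1,500 per well received DMSO-dissolved compounds. Cell viability was quantified 16hr later by CellTiter-Fluor fluorescence, measured after 1hr with reagent at 37C.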

[9] = biological target: Cytochrome P450 2D6 (Homo sapiens) (UniProt P10635); assay: Cytochrome P450 Family 2 Subfamily D Member 6 (CYP2D6) small molecule antagonists: luciferase reporter qHTS assay (AID 1671196); conditions: P450-Glo CYP2D6 enzyme assay, luciferin luminescence, 1 h; series mostly up to 115 µM; note: nearly all actives have a fitted effect of over 50% in size; note: potency is the fitted concentration of half-maximal effect
In short: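 CYP2D6 enzyme–substrate mix was held with compound for 10 min at room temperature, then NADPH regeneration solution was added and the reaction ran 1 h at room temperature. Luciferin product was detected by luminescence after 20 min with detection reagent.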

[10] = biological target: Cytochrome P450 2C19 (Homo sapiens) (UniProt P33261); assay: Cytochrome P450 Family 2 Subfamily C Member 19 (CYP2C19) small molecule antagonists: luciferase reporter qHTS assay (AID 1671197); conditions: P450-Glo CYP2C19 enzyme, luciferin luminescence, 1 h; series mostly up to 115 µM; note: nearly all actives have a fitted effect of over 65% in size; note: potency is the fitted concentration of half-maximal effect
In short: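 P450-Glo CYP2C19 screening system; proluciferin substrate; DMSO compound stocks; 10 min RT preincubation; NADPH regeneration, 1 h at 37C; luciferin detection reagent, 20 min RT; luminescence as RLU.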

[11] = biological target: Cytochrome P450 2C9 (Homo sapiens) (UniProt P11712); assay: Cytochrome P450 Family 2 Subfamily C Member 9 (CYP2C9) small molecule antagonists: luciferase reporter qHTS assay (AID 1671198); conditions: P450-Glo CYP2C9 enzyme assay, luciferin luminescence; at 115 µM (top of the series) unless noted; note: nearly all actives have a fitted effect of over 50% in size
In short: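 CYP2C9 activity was measured with a P450-Glo proluciferin substrate. Enzyme–substrate mix was held with compound for 10 min at room temperature, then NADPH regeneration solution was added for 1 h at 37C. Luciferin product was read as luminescence.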

[12] = biological target: Cytochrome P450 1A2 (Homo sapiens) (UniProt P05177); assay: Cytochrome P450 Family 1 Subfamily A Member 2 (CYP1A2) small molecule antagonists: luciferase reporter qHTS assay (AID 1671199); conditions: P450-Glo CYP1A2 enzyme, luciferin luminescence, 1 h; at 115 µM (top of the series) unless noted; note: nearly all actives have a fitted effect of over 50% in size
From the text: National Center for Advancing Translational Sciences [NCATS]
U.S. Environmental Protection Agency [EPA]
National Institutes of Environmental Health Sciences [NIEHS]
National Toxicology Program [NTP]
U.S. Food and Drug Administration [FDA]
Cytochrome P450 (CYP) enzymes are membrane-bound hemeproteins that play a key role in metabolism of drugs and xenobiotics. Evaluation of the effect of chemicals on CYP isozymes is useful to minimize the adverse drug reactions and toxicities in drug development process. Tox21 chemicals were tested for their effect on CYP enzyme activities by using P450-Glo (TM) screening systems (Promega Corporation, Madison, WI). These systems provide a luminescent method containing proluciferin substrates and are converted to luciferin products by CYP isozymes. The luciferin products formed are detected with a luciferin detection reagent, and the amount of light produced is proportional to CYP activity. P450-Glo (TM) CYP1A2 screening system (Catalog. No. V9770) was used to detect the compounds that interfere in CYP1A2 activity.
Tox21 Assay Protocol Summary:
Two ul of enzyme-substrate mix was dispensed into medium binding white/solid 1536-well plates (Greiner Bio-One North America Inc., Monroe, NC) using a BioRaptr Flying Reagent Dispenser (FRD, Beckman Coulter, Brea, CA). Compounds dissolved in DMSO and positive control (furafyllline) were transferred to the assay plates at 23 nl using a Pintool station (Wako, San Diego, CA). The assay plates were incubated at room temperature for 10 min. Then 2 ul of NADPH regeneration solution was added to each well of the assay plates using an FRD and incubated at room temperature for 1 h. The reaction was stopped by adding 4 ul of detection reagent using an FRD and after 20 min incubation at room temperature the luminescence signal was measured using a ViewLux plate reader (Perkin Elmer, Shelton, CT). Data were expressed as relative luminescence units.

[13] = biological target: Cytochrome P450 3A4 (Homo sapiens) (UniProt P08684); assay: Cytochrome P450 Family 3 Subfamily A Member 4 (CYP3A4) small molecule antagonists: luciferase reporter qHTS assay (AID 1671201); conditions: P450-Glo CYP3A4 enzyme, luciferin luminescence, 1 h; at 115 µM (top of the series) unless noted; note: nearly all actives have a fitted effect of over 50% in size
In short: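 CYP3A4 activity was followed with a P450-Glo proluciferin substrate. Test compounds in DMSO were preincubated 10 min; NADPH regeneration then ran 1 h, and light output was read 20 min after detection reagent.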
% is set by controls: 0 for no effect and ±100 for the full control effect.

CC(C)N(CCO)C(C)C
inactive: Potency [1]

O=[N+]([O-])c1ccccc1[N+](=O)[O-]
inactive: caspase activation [2] -0.92% and 0.189% | caspase-3/7 activation [3] 0.595% and 0.0691% | activity change, negative = cytotoxicity [4] -9.66% and -5.94% | activation [5] 14.3% and -13.2% | activity change, negative = inhibition [6] 15.5% and 3.42%

Cc1ccc([N+](=O)[O-])cc1[N+](=O)[O-]
active: Potency [1] 31.3 µM

COP(C)(=O)OC
inactive: Potency [1]

CCC(=O)N(c1ccccc1)C1CCNCC1
active: Potency [9] 4.9 µM
inactive: activity change, negative = cytotoxicity [7] 6.04% [at 42.5 µM] | caspase activation [2] 0.606% [at 42.5 µM] | activity change, negative = cytotoxicity [8] -3.53% [at 42.5 µM] | caspase-3/7 activation [3] -1.92% [at 42.5 µM] | activity change, negative = cytotoxicity [4] 3.05% [at 42.5 µM] | activation [5] -7.5% [at 42.5 µM] | Potency [1] | Potency [10] | activity change, negative = inhibition [11] -18.3% [at 53 µM] | activity change, negative = inhibition [12] -18.7% [at 53 µM] | activity change, negative = inhibition [6] 1.55% [at 35.3 µM] | activity change, negative = inhibition [13] -13.4% [at 52.9 µM]

O=[N+]([O-])OCC(CO[N+](=O)[O-])(CO[N+](=O)[O-])CO[N+](=O)[O-]
inactive: Potency [1]

ClCCOP(OCCCl)OCCCl
inactive: activity change, negative = cytotoxicity [7] 3.23% and 0.456% | caspase activation [2] 0.457% and -0.0328% | activity change, negative = cytotoxicity [8] 0.0358% and -0.853% | caspase-3/7 activation [3] 1.32% and -1.29% | activity change, negative = cytotoxicity [4] -0.102% and -0.546% | activation [5] 5.82% and 12.3% | Potency [1] | Potency [9] | activity change, negative = inhibition [11] -19.9% | activity change, negative = inhibition [12] -9.36% | activity change, negative = inhibition [6] -1.2% and -8.85% | activity change, negative = inhibition [13] 2.45% and 2.05%
71.5 µM (active) and inactive: Potency [10]

Cc1c([N+](=O)[O-])cccc1[N+](=O)[O-]
inactive: Potency [1]

CCOC(=O)N1CCC(=O)CC1
inactive: activity change, negative = cytotoxicity [7] 8.78% [at 42.5 µM] | caspase activation [2] 0.255% [at 42.5 µM] | activity change, negative = cytotoxicity [8] 4.24% [at 42.5 µM] | caspase-3/7 activation [3] 0.155% [at 42.5 µM] | activity change, negative = cytotoxicity [4] 5.37% [at 42.5 µM] | activation [5] -7.76% [at 42.5 µM] | Potency [1] | Potency [9] | Potency [10] | activity change, negative = inhibition [11] -2.12% [at 53 µM] | activity change, negative = inhibition [12] 10.1% [at 53 µM] | activity change, negative = inhibition [6] -0.226% [at 35.3 µM] | activity change, negative = inhibition [13] 6.47% [at 52.9 µM]

OCCSCCO
inactive: Potency [1]

CCOP(=O)(Cl)Cl
inactive: activity change, negative = cytotoxicity [7] 1.66% and 3.53% | caspase activation [2] 0.513% and 0.295% | activity change, negative = cytotoxicity [8] 9.96% and 8.65% | caspase-3/7 activation [3] 0.134% and -0.934% | activity change, negative = cytotoxicity [4] -1.93% and -1.99% | activation [5] -0.356% and -0.791% | Potency [1] | Potency [10] | activity change, negative = inhibition [11] -28.9% | activity change, negative = inhibition [12] -19% | activity change, negative = inhibition [6] 11.2% and 1.17% | activity change, negative = inhibition [13] -3.37% and 0.926%

ClCCNCCCl
inactive: activity change, negative = cytotoxicity [7] -1.34% | caspase activation [2] -0.715% | activity change, negative = cytotoxicity [8] 0.575% | caspase-3/7 activation [3] 0.489% | activity change, negative = cytotoxicity [4] 0.52% | activation [5] 0.116% | Potency [1] | Potency [9] | Potency [10] | activity change, negative = inhibition [11] -7.56% | activity change, negative = inhibition [12] -2.22% | activity change, negative = inhibition [6] -1.82% | activity change, negative = inhibition [13] -0.233%

CCOP(=S)(Cl)OCC
inactive: activity change, negative = cytotoxicity [7] 16.8% | caspase activation [2] -0.869% | activity change, negative = cytotoxicity [8] -14% | caspase-3/7 activation [3] -0.0532% | activity change, negative = cytotoxicity [4] -2.73% | activation [5] 29.8% | activity change, negative = inhibition [6] 6.03%

C/C1=C2N=C(/C=C3N=C(/C(C)=C4\[N-][C@@](C)([C@@H]5N=C1[C@](C)(CCC(=O)NC[C@@H](C)OP(=O)([O-])O[C@H]1[C@@H](O)[C@@H](n6cnc7cc(C)c(C)cc76)O[C@@H]1CO)[C@H]5CC(N)=O)[C@@](C)(CC(N)=O)[C@@H]4CCC(N)=O)[C@@](C)(CC(N)=O)[C@@H]\3CCC(N)=O)C(C)(C)[C@@H]/2CCC(N)=O.[C-]#N.[Co+3]
inactive: Potency [1]
